Experimental data from ChEMBL document CHEMBL5725556, “Substituted aza-bicyclic imidazole derivatives useful TRPM8 receptor modulators” (2017).

Assay: Canine TRPM8 Functional Assay: HEK293 cells stably expressing canine TRPM8 were routinely grown as monolayers in Dulbecco's minimum essential medium supplemented with 10% FBS, 2 mM L-glutamine, 100 units/mL penicillin, 100 ug/mL streptomycin and 400 μg/mL G418. Cells were maintained in 5% CO2 at 37° C. At 24 hr prior to assay, cells were seeded in black wall, clear-base poly-D-lysine coated 384-well plates (BD Biosciences, NJ, USA) at a density of 5,000 cells per well in culture medium and grown overnight in 5% CO2 at 37° C. On assay day, growth media was removed, and cells were loaded with Calcium 3 Dye (Molecular Devices) for 35 min at 37° C., under 5% CO2 and then incubated for 25 min at room temperature and atmosphere. Subsequently, cells were tested for agonist-induced increases in intracellular Ca2+ levels using FLIPR or FDSS. Cells were treated with compounds of the formula (I) at varying concentrations and intracellular Ca2+ was measured for 5 min prior to the addition of icilin to each well to achieve a final concentration that produces an approximately 80% maximal response.
Type: cell-based

SMILES | IC50
COc1nc(-c2ccccc2Cl)cc2nc(-c3cc(C(C)C)co3)[nH]c12 | 31.8 nM
COc1nc(-c2ccccc2Cl)cc2nc(-c3oc(Br)c(C(C)(C)C)c3C)[nH]c12 | 33.9 nM
